The source of these data is patent US9290490B2 (Merck Sharp & Dohme Corp., priority 2011, dated 2016).

In this assay the target is recombinant human GST-Syk (Homo sapiens (Human), UniProt P43405). The experiment in a line: Homogeneous Time-Resolved Fluorescence (HTRF) Assay for the Recombinant Human Syk Enzyme. Type of assay: biochemical. The note with it: recombinant human GST-Syk 5 pM, ATP 25 μM.
The mark [1] stands for this setting: read-out: rhSyk Activity (IC50).
[2] abbreviates: read-out: rhSyk Activity (IC50), tested form: TFA.
The mark [3] stands for this setting: read-out: rhSyk, 10-dose titration, tested form: TFA.
[4] abbreviates: read-out: rhSyk Activity (IC50), tested form: ammonium salt.
The mark [5] stands for this setting: read-out: rhSyk, 10-dose titration.

Like-named read-outs stand apart in the source and are kept apart here.

With `Cc1cc(Nc2nccc(C(F)(F)F)n2)cc(-c2cnc(C(O)[C@H]3CC[C@@H](C(=O)O)CC3)s2)c1` (relative stereo), the IC50 under setting [1] is < 100 nM.

As for `Cc1cc(Nc2nccc(C(F)(F)F)n2)cc(-c2cnc(C(O)C3(O)CCC(C(=O)O)CC3)s2)c1` (single isomer, unassigned), the IC50 under setting [1] is < 100 nM.

With `Cc1cc(Nc2nccc(C(F)(F)F)n2)cc(-c2cnc(C(O)([C@H]3CC[C@H](C(=O)O)CC3)C(F)(F)F)s2)c1` (single isomer, unassigned), under setting [1], the IC50 is < 100 nM.

Consider `Cc1cc(Nc2nccc(C(F)(F)F)n2)cc(-c2cnc(C(C)(O)C3CC4C(C3)C4C(=O)O)s2)c1` (single isomer, unassigned), for which the IC50 reads like this: under setting [2], < 100 nM; under setting [3], 3 nM.

For the molecule `Cc1cc(Nc2nccc(C(F)(F)F)n2)cc(-c2cnc(C(C)(O)[C@@H]3C[C@H](CC(=O)O)C3(C)C)s2)c1` (relative stereo), the IC50 under setting [4] was < 100 nM.

On to `CCOC(=O)C1CCC(C(C)(O)c2ncc(-c3cc(C)cc(Nc4nccc(C)n4)c3)s2)CC1C` (single isomer, unassigned), for which the IC50 under setting [1] fell in the range of 100 to 1000 nM.

As to `Cc1cc(Nc2nccc(C(F)(F)F)n2)cc(-c2cnc(C(C)(O)C3CCC(C(=O)O)C(C)C3)s2)c1` (single isomer, unassigned), under setting [1], the IC50 is < 100 nM.

As for `COc1ccnc(Nc2cc(C)cc(-c3cnc(C(C)(O)[C@H]4CC[C@H](C(=O)O)CC4)s3)c2)n1` (single isomer, unassigned), under setting [4], the IC50 was < 100 nM.

Regarding `Cc1cc(Nc2ncc(F)c(C3CC3)n2)cc(-c2cnc(C(C)(O)[C@H]3CC[C@H](C(=O)O)CC3)s2)c1` (relative stereo), the IC50 by setting is: under setting [2], < 100 nM; under setting [3], < 0.5 nM.

Consider `Cc1ccnc(Nc2cccc(-c3cnc(C(C)(O)[C@H]4CC[C@H](C(=O)O)CC4)s3)c2)n1` (single isomer, unassigned), for which, under setting [1], the IC50 was < 100 nM.

Turning to `Cc1cc(Nc2ncc(F)c(C)n2)cc(-c2cnc(C(C)(O)[C@H]3CC[C@H](C(=O)O)CC3)s2)c1` (single isomer, unassigned), the IC50 under setting [4] was < 100 nM.

For the molecule `COc1ccnc(Nc2cc(C)cc(-c3cnc(C(C)(O)C4CCC(C(=O)O)C(C)C4)s3)c2)n1` (single isomer, unassigned), the IC50 under setting [1] was < 100 nM.

As to `Cc1cc(Nc2ncc(Cl)c(C)n2)cc(-c2cnc(C(C)(O)[C@H]3CC[C@H](C(=O)O)CC3)s2)c1` (single isomer, unassigned), under setting [4], the IC50 is < 100 nM.

With `Cc1cc(Nc2nccc(C(F)(F)F)n2)cc(-c2cnc(C(CO)[C@H]3CC[C@H](C(=O)O)CC3)s2)c1` (stereo partly shown), the IC50 under setting [2] is < 100 nM.

`Cc1cc(Nc2nccc(C(F)(F)F)n2)cc(-c2cnc(C(C)(O)C3CC(CC(=O)O)C3(C)C)s2)c1` (single isomer, unassigned): under setting [1], the IC50 is < 100 nM.

Take `COc1nc(Nc2cc(C)cc(-c3cnc(C(C)(O)C4CCC(C(=O)O)C(C)C4)s3)c2)ncc1F` (single isomer, unassigned): the IC50 under setting [2] is < 100 nM.

`Cc1cc(Nc2nccc(C(F)(F)F)n2)cc(-c2cnc(C(C)(O)[C@H]3C[C@@H]3C(C)(C)C(=O)O)s2)c1` (relative stereo): under setting [1], the IC50 is < 100 nM.

For `CCOC(=O)C1CCC(C(C)(O)c2ncc(-c3cc(C)cc(Nc4nccc(C(F)(F)F)n4)c3)s2)CC1C` (single isomer, unassigned), the IC50 under setting [1] is 100 to 1000 nM.

Take `COc1ccnc(Nc2cc(C)cc(-c3cnc(C(O)(CO)[C@H]4CC[C@H](C(=O)O)CC4)s3)c2)n1` (stereo partly shown): the IC50 under setting [2] was < 100 nM.

Consider `Cc1cc(Nc2nccc(C(F)(F)F)n2)cc(-c2cnc(C(C)(O)[C@H]3CC[C@H](C#N)CC3)s2)c1` (stereo partly shown), for which the IC50 under setting [1] is < 100 nM.

Turning to `CC(C)C(O)(c1ncc(-c2cccc(Nc3nccc(C(F)(F)F)n3)c2)s1)[C@H]1CC[C@H](C(=O)O)CC1` (single isomer, unassigned), the IC50 reads like this: under setting [1], < 100 nM; under setting [2], < 100 nM.

For `Cc1cc(Nc2nccc(C(F)F)n2)cc(-c2cnc(C(C)(O)[C@H]3CC[C@H](C(=O)O)CC3)s2)c1` (single isomer, unassigned), the IC50 by setting is: under setting [1], < 100 nM; under setting [5], 2 nM.

Regarding `CCC(O)(c1ncc(-c2cc(C)cc(Nc3nccc(C)n3)c2)s1)[C@H]1CC[C@H](C(=O)O)CC1` (single isomer, unassigned), the IC50 under setting [1] is < 100 nM.

For `Cc1cc(Nc2nccc(C)n2)cc(-c2cnc(C(C)(O)C3CCC(C(=O)O)C(C)C3)s2)c1` (single isomer, unassigned), the IC50 under setting [1] was < 100 nM.

Regarding `Cc1cc(Nc2nccc(C(F)(F)F)n2)cc(-c2cnc(C(O)(C(C)C)[C@H]3CC[C@H](C(=O)O)CC3)s2)c1` (single isomer, unassigned), the IC50 under setting [1] is < 100 nM.

As for `CCOC(=O)[C@H]1CC[C@H](C(O)(CC)c2ncc(-c3cc(C)cc(Nc4nccc(C(F)(F)F)n4)c3)s2)CC1` (single isomer, unassigned) [2-7], the IC50 under setting [1] was < 100 nM.

`Cc1cc(Nc2nccc(C(C)C)n2)cc(-c2cnc(C(C)(O)[C@H]3CC[C@H](C(=O)O)CC3)s2)c1` (single isomer, unassigned): the IC50 under setting [4] was < 100 nM.

On to `Cc1cc(Nc2nccc(C(F)(F)F)n2)cc(-c2cnc(C(C)(O)C34CC5CC(CC(C(=O)O)(C5)C3)C4)s2)c1` (racemic), for which, under setting [2], the IC50 was < 100 nM.

`CCCCOC(=O)[C@H]1CC[C@H](C(C)(O)c2ncc(-c3cc(C)cc(Nc4nccc(OC)n4)c3)s2)CC1` (single isomer, unassigned): the IC50 under setting [1] lay within 100 to 1000 nM.

Consider `Cc1cc(Nc2nccc(C(F)(F)F)n2)cc(-c2cnc(C(O)[C@H]3CC[C@H](C(=O)O)CC3)s2)c1` (relative stereo), for which the IC50 under setting [1] was < 100 nM.

For the molecule `Cc1cc(Nc2nccc(C(F)(F)F)n2)cc(-c2cnc(C(C)(O)[C@H]3CC[C@H](CO)CC3)s2)c1` (relative stereo), under setting [1], the IC50 is < 100 nM.

`Cc1cc(Nc2nccc(C(F)(F)F)n2)cc(-c2cnc(C(C)(O)[C@H]3C[C@@H]3C(C)(C)C(=O)O)s2)c1` (single isomer, unassigned): under setting [1], the IC50 was < 100 nM.

For `Cc1cc(Nc2nccc(C(F)(F)F)n2)cc(-c2cnc(C(F)[C@H]3CC[C@@H](C(=O)O)CC3)s2)c1` (single isomer, unassigned), the IC50 under setting [2] was < 100 nM.

Turning to `CCCCOC(=O)[C@H]1CC[C@H](C(C)(O)c2ncc(-c3cc(C)cc(Nc4nccc(C(F)F)n4)c3)s2)CC1` (single isomer, unassigned), the IC50 under setting [1] fell in the range of 100 to 1000 nM.

As for `Cc1cc(Nc2nccc(C(F)(F)F)n2)cc(-c2cnc(C(C)(O)C3CC3C(C)(C)C(=O)O)s2)c1` (single isomer, unassigned), under setting [1], the IC50 is < 100 nM.

In the case of `CCCCOC(=O)[C@H]1CC[C@@H](C(C)(O)c2ncc(-c3cc(C)cc(Nc4nccc(C(F)(F)F)n4)c3)s2)CC1` (single isomer, unassigned), under setting [1], the IC50 lay within 100 to 1000 nM.

Regarding `Cc1cc(Nc2nccc(C)n2)cc(-c2cnc(C(C)(O)[C@H]3CC[C@@H](C(=O)O)[C@@H](C)C3)s2)c1` (single isomer, unassigned), the IC50 under setting [1] is < 100 nM.

Take `COC(=O)C1CCC(C(O)c2ncc(-c3cc(C)cc(Nc4nccc(C(F)(F)F)n4)c3)s2)CC1` (stereo not shown): under setting [1], the IC50 is < 100 nM.

For the molecule `Cc1cc(Nc2nccc(C(F)F)n2)cc(-c2cnc(C(O)([C@H]3CC[C@H](C(=O)O)CC3)C(F)(F)F)s2)c1` (single isomer, unassigned), under setting [1], the IC50 was < 100 nM.

Take `Cc1cc(Nc2nccc(C)n2)cc(-c2cnc(C(O)(CO)[C@H]3CC[C@H](C(=O)O)CC3)s2)c1` (single isomer, unassigned): the IC50 is < 100 nM under setting [1] and < 100 nM under setting [2].

`Cc1cc(Nc2nccc(C)n2)cc(-c2cnc(C(CC(O)CO)[C@H]3CC[C@H](C(=O)O)CC3)s2)c1` (stereo partly shown): the IC50 under setting [1] was < 100 nM.

Regarding `Cc1cc(Nc2nccc(C)n2)cc(-c2cnc(C(C)(O)C3CC(CC(=O)O)C3(C)C)s2)c1` (single isomer, unassigned), the IC50 under setting [1] was < 100 nM.

On to `COc1nc(Nc2cc(C)cc(-c3cnc(C(C)(O)[C@H]4CC[C@H](C(=O)O)CC4)s3)c2)ncc1F` (single isomer, unassigned), for which the IC50 under setting [4] was < 100 nM.

Take `CCOC(=O)[C@@H]1CC[C@@H](C(C)(O)c2ncc(-c3cc(C)cc(Nc4nccc(C)n4)c3)s2)C[C@@H]1C` (single isomer, unassigned): the IC50 under setting [1] fell in the range of 100 to 1000 nM.

With `CCOC(=O)C1CCC(C(C)(O)c2ncc(-c3cc(C)cc(Nc4nccc(C(F)F)n4)c3)s2)CC1C` (single isomer, unassigned), the IC50 under setting [1] was < 100 nM.

Take `Cc1cc(Nc2ncc(F)c(C)n2)cc(-c2cnc(C(C)(O)C3CC(CC(=O)O)C3(C)C)s2)c1` (single isomer, unassigned): the IC50 under setting [1] was < 100 nM.

Turning to `Cc1cc(Nc2nccc(C)n2)cc(-c2cnc(C(O)([C@H]3CC[C@H](C(=O)O)CC3)C(F)(F)F)s2)c1` (single isomer, unassigned), the IC50 is < 100 nM under setting [1] and < 100 nM under setting [2].

For `Cc1cc(Nc2nccc(C(F)(F)F)n2)cc(-c2cnc(C(O)C3CCC(C(=O)O)CC3)s2)c1` (stereo not shown), the IC50 under setting [1] is < 100 nM.

For the molecule `Cc1cc(Nc2nccc(C(F)F)n2)cc(-c2cnc(C(C)(O)C3CCC(C(=O)O)C(C)C3)s2)c1` (single isomer, unassigned), under setting [1], the IC50 is < 100 nM.

On to `COc1nc(Nc2cc(C)cc(-c3cnc(C(C)(O)[C@H]4CC[C@H](C(=O)O)CC4)s3)c2)ncc1Cl` (single isomer, unassigned), for which, under setting [4], the IC50 was < 100 nM.

Turning to `Cc1cc(Nc2nccc(C(F)(F)F)n2)cc(-c2cnc(C(C)(F)[C@H]3CC[C@H](C(=O)O)CC3)s2)c1` (single isomer, unassigned), the IC50 under setting [1] was < 100 nM.

Consider `Cc1cc(Nc2nccc(C(F)(F)F)n2)cc(-c2cnc(C(F)[C@H]3CC[C@H](C(=O)O)CC3)s2)c1` (single isomer, unassigned), for which the IC50 under setting [2] was < 100 nM.

Turning to `CCCCOC(=O)[C@H]1CC[C@H](C(C)(O)c2ncc(-c3cccc(Nc4nccc(C)n4)c3)s2)CC1` (single isomer, unassigned), the IC50 runs as follows: under setting [1], 1000 to 10000 nM; under setting [5], 1430 nM.

Turning to `CCCCOC(=O)[C@H]1CC[C@H](C(C)(O)c2ncc(-c3cc(C)cc(Nc4nccc(C)n4)c3)s2)CC1` (stereo partly shown), the IC50 under setting [1] lay in the range of 100 to 1000 nM.
